Legend:
[1] = test system: RNA synthesis in L1210 cells; experiment: RNA synthesis in cultured L1210 cells (14C incorporation); conditions: 0.5 μg./ml.; 60 min. at 37° C.
[2] = test system: DNA synthesis in L1210 cells; experiment: DNA synthesis in cultured L1210 cells (14C incorporation); conditions: 1.0 μg./ml.; 60 min. at 37° C.

| Structure (SMILES) | % Inhibition, Synthesis of RNA [1] | % Inhibition, Synthesis of DNA [2] |
| --- | --- | --- |
| CC[C@@]1(O)C[C@H](O[C@H]2C[C@H](N(C)C)[C@H](O[C@H]3C[C@H](O)[C@H](O[C@H]4C[C@H](O)[C@H](O)[C@H](C)O4)[C@H](C)O3)[C@H](C)O2)c2c(cc3c(c2O)C(=O)c2c(O)ccc(O)c2C3=O)[C@H]1C(=O)OC [MA 144-U2] | 71.5% | 30.5% |
| CC[C@@]1(O)C[C@H](O[C@H]2C[C@H](N(C)C)[C@H](O[C@H]3C[C@H](O)[C@H](OC4CCC(=O)C(C)O4)[C@H](C)O3)[C@H](C)O2)c2c(cc3c(c2O)C(=O)c2c(O)cccc2C3=O)[C@H]1C(=O)OC (stereo partly drawn) [D-cinerulosyl-2-deoxy-L-fucosyl-L-rhodosaminyl-alkavinone] | 65.6% | 40.9% |
| CC[C@@]1(O)C[C@H](O[C@H]2C[C@H](N(C)C)[C@H](O[C@H]3C[C@H](O)[C@H](OC4CCC(=O)C(C)O4)[C@H](C)O3)[C@H](C)O2)c2c(cc3c(c2O)C(=O)c2c(O)ccc(O)c2C3=O)[C@H]1C(=O)OC (stereo partly drawn) [D-cinerulosyl-2-deoxy-L-fucosyl-L-rhodosaminyl-ε-pyrromycinone] | 57.8% | 39.4% |
| CC[C@@]1(O)C[C@H](O[C@H]2C[C@H](N(C)C)[C@H](O[C@H]3C[C@H](O)[C@H](O[C@H]4CCC(=O)[C@H](C)O4)[C@H](C)O3)[C@H](C)O2)c2c(cc3c(c2O)C(=O)c2c(O)cccc2C3=O)[C@H]1C(=O)OC [Aclacinomycin, reference compound] | 81.6% | 69.6% |

— patent US4209588A, “Process for producing new antitumor anthracycline antibiotics” (Zaidan Hojin Biseibutsu Kagaku Kenkyu Kai, priority 1976, dated 1980)
